Tested on: deoxymyoglobin
Assay: Myoglobin assay, CO release under 365 nm UV light
Settings: 365 nm lamp; 15 μM complex, 60 μM myoglobin, pH 7.4
Protocol: The myoglobin solution, which was prepared in PBS (pH 7.4, 0.1 M), was reduced to deoxymyoglobin using sodium dithionite (100 mM). The solutions of each complex ([…]) in DMSO were incubated with deoxymyoglobin solution ([…]), and the final solution was exposed to 365 nm UV light from a distance of 2 cm. Deoxymyoglobin has a band at 557 nm, while carbonmonoxy-myoglobin has two identical bands at 540 and 577 nm, and the changes at these wavelengths make the process observable and determinable. Thus, the CO-releasing properties of the molecules were calculated using the Lambert–Beer Law.
The commonly used method for determining the CO-releasing of a molecule is UV–visible spectroscopy. There are various ways for releasing CO from a molecule such as substitution, decomposition, and photoactivation. , Manganese carbonyl complexes are known as photoactivatable CO-releasing molecules (photoCORM). A photoCORM must be stable in the dark while it releases CO upon exposure to light of a certain wavelength. […] The basic principle of the myoglobin assay is based on the formation of carbon monoxymyoglobin with the interaction of deoxymyoglobin with CORMs by the spectrophotometric method. […] The CO-releasing properties of a molecule could be evaluated from two perspectives: the first is how fast the molecule’s release is, and the second is how high the rate of the releasing is.

Row | Substance | Half-life t 1/2 (50% of total CO release) [min]
1 | [Mn(CO)3(bpy)(1-(2-vinyloxyethyl)benzimidazole)]PF6 [2e] | 7.49
2 | [Mn(CO)3(bpy)(1-(2-metallyl)benzimidazole)]PF6 [2c] | 3.14

From PMC12290954, “Synthesis, Characterization, Computational Evaluation, CO-Releasing Properties, and Molecular Docking Interactions of New [Mn(CO)3(bpy)L]PF6‑Type Molecules” (ACS Omega, 2025)
